Data: patent US11998616B2, “Nanoparticles for crossing the blood brain barrier and methods of treatment using the same” (California Institute of Technology, priority 2018, dated 2024)

Tests used:
[1] = system: HER2-positive BT474-Gluc breast cancer brain metastases; assay: Anti-HER2 therapy on BT474-Gluc brain metastases established by IC injection; assay type: in vivo, Rag2−/−; Il2rg−/− mice; conditions: IC-established tumors, 5 mg/kg twice weekly intravenous
Experimental: (§1) FIGS. 7(A-B) show the effect of anti-HER2 therapy on HER2-positive BT474-Gluc breast cancer brain metastases established in Rag2^−/−; Il2rg^−/− mice. Trastuzumab at 5 mg/kg was administered twice weekly via intravenous tail vein injection, and treatment was initiated when tumors reached 10 mm^3 in volume. MRI was used to monitor brain tumor size and response to treatment.
(§2) IV injection of BT474-Gluc cells reproduced the metastatic pattern observed in breast cancer patients, with multiple metastatic sites (Table 2). Importantly, brain tumors developed in a majority of the mice (>90%) before they succumbed to visceral tumor burden, with a distribution similar to that observed in patients. The median time to establishment of brain metastatic tumors visible by MRI was 4.2 months (range 2.9-6.1 months). We tested the effects of a standard anti-HER2 therapy, trastuzumab, on the growth of BT474-Gluc tumors established by IV injection versus the commonly used intracranial (IC) method.

[2] = system: HER2-positive BT474-Gluc breast cancer brain metastases; assay: Anti-HER2 therapy on BT474-Gluc brain metastases established by IV injection; assay type: in vivo, Rag2−/−; Il2rg−/− mice; conditions: IV-established tumors, 5 mg/kg twice weekly intravenous
Experimental: as §1, §2

[3] = start at 10 mm^3, listed as trastuzumab

trastuzumab
effect on tumor progression ([1]; start at 10 mm^3): significant delay in tumor progression | effect on tumor progression [1, 3]: delay in tumor progression | effect on tumor progression ([2]; start at 10 mm^3): did not | effect on tumor progression [2, 3]: failed to control tumor growth
